Experimental data from patent US20070225248A1 (Clavis Pharma AS, priority 2006, published 2007).
Read-outs that look alike come from different tables or passages of the source.

Test system: Colon 6044 (human colon carcinoma)
Details: for Optimum T/C [%] (on day) / Toxic deaths (d): Q3 × 5

## Nc1ccn([C@@H]2O[C@H](CO)[C@@H](O)C2(F)F)c(=O)n1 [Gemcitabine, 2′,2′-difluorodeoxycytidine, reference compound]
Oral 120 mg/kg
  Optimum T/C [%] (on day): Toxic
Oral 120 mg/kg, deaths days 11-16
  Toxic deaths (d): 7/8(11-16)
Oral 180 mg/kg
  Optimum T/C [%] (on day): Toxic
Oral 180 mg/kg, deaths days 11-16
  Toxic deaths (d): 7/8(11-16)
Oral 240 mg/kg
  Optimum T/C [%] (on day): Toxic
Oral 240 mg/kg, deaths days 11-15
  Toxic deaths (d): 8/8(11-15)
mouse, in vivo
  toxicity after oral administration compared to intraperitoneal (parenteral) administration (in words): largely increased
